Values quoted from earlier work in patent US20130028991A1, “DIETARY SUPPLEMENT FOR USE IN A WEIGHT LOSS PROGRAM” (priority 2011, published 2013).

Conditions: patients of the group treated with insulin, UKPDS

In the case of insulin, the “weight gained on average” value is listed as 6.5 kg.
